Source: ChEMBL document CHEMBL1629653, “CMY-31 and CMY-36 cephalosporinases encoded by ColE1-like plasmids” (Antimicrob Agents Chemother, 2009)

B1: Efflux transporter (Salmonella newport), Q3S5C3 (protein)
chain: MSWIVLLIAGLLEVVWAIGLKYTHGFTRLTPSIITIAAMIVSIAMLSWAMRTLPVGTAYAVWTGIGAVGAAITGILLLGESASPARLLSLGLIVAGIIGLKLSTH
B2: Class C beta-lactamase CMY-36 (Klebsiella pneumoniae), Q48435 (protein)
chain: MMKKSLCCALLLTASFSTFAAAKTEQQIADIVNRTITPLMQEQAIPGMAVAVIYQGKPYYFTWGKADIANNHPVTQQTLFELGSVSKTFNGVLGGDCIARGEIKLSDPVTKYWPELTGKQWQGIRLLHLATYTAGGLPLQIPDDVRDKAALLHFYQNWQPQWTPGAKRLYANSSIGLFGALAVKPSGMSYEEAMTRRVLQPLKLAHTWITVPENEQKDYAWGYREGKPVHVSPGQLDAEAYGVKSSVIDMARWVQANMDASHVQEKTLQQGIALAQSRYWRIGDMYQGLGWEMLNWPLKADSIINGSDSKVALAALPAVEVNPPAPAVKASWVHKTGSTGGFGSYVAFVPEKNLGIVMLANKSYPNPVRVEAAWRILEKLQ

Columns and labels:
[1] = substrate: CC(=O)OCC1=C(C(=O)O)N2C(=O)[C@@H](NC(=O)Cc3cccs3)[C@H]2SC1; conditions: Salmonella enterica subsp. enterica serovar Newport; AM17274
[2] = substrate: O=C(Cc1cccs1)N[C@@H]1C(=O)N2C(C(=O)[O-])=C(C[n+]3ccccc3)CS[C@H]12; conditions: Salmonella enterica subsp. enterica serovar Newport; AM17274
[3] = substrate: CC(=O)OCC1=C(C(=O)O)N2C(=O)[C@@H](NC(=O)Cc3cccs3)[C@H]2SC1; conditions: Salmonella enterica subsp. enterica serovar Newport; AM17274; remark: listed apart in the source
[4] = substrate: CC(=O)OCC1=C(C(=O)O)N2C(=O)[C@@H](NC(=O)Cc3cccs3)[C@H]2SC1; assay: Ratio of Kcat to Km for Klebsiella pneumoniae cephalosporinase CMY-36 by spectrophotometry
In short: (§1)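 CMY β-lactamases purified from sonicated, ultracentrifuge-clarified extracts of E. coli DH5α clones (pB-cmy36, pB-cmy2) by Q- then S-Sepharose ion exchange (>90% pure by SDS-PAGE); steady-state hydrolysis kinetics measured spectrophotometrically, CMY-2 run in parallel.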

[5] = substrate: CC(=O)OCC1=C(C(=O)O)N2C(=O)[C@@H](NC(=O)Cc3cccs3)[C@H]2SC1; assay: Activity of Klebsiella pneumoniae HP205 cephalosporinase CMY-36 by spectrophotometry
In short: as §1

| Protein | Km [1] [µM] | kcat [1] [s⁻¹] | Km [2] [µM] | kcat/Km [3] [M⁻¹ s⁻¹] | kcat/Km [4] [M⁻¹ s⁻¹] | Km [5] [µM] | kcat [5] [s⁻¹] |
| --- | --- | --- | --- | --- | --- | --- | --- |
| B1 | 5.1 | 150 | 150 | 2.94e+07 |  |  |  |
| B2 |  |  |  |  | 3.18e+07 | 4.4 | 140 |
